{"source": "paper PMC12363342", "about": "“Investigating the N-terminal linker histone H1 subtypes as substrates for JmjC lysine demethylases” (RSC Chemical Biology, 2025)", "target": "T1, KDM4E (Homo sapiens, UniProt B2RXH2)", "T1 construct": "KDM4DM1-L359,[39]; KDM4EM1-R336,[30]; His6 (N); made in house; host or cells: Escherichia coli", "T1 sequence (B2RXH2 1-336)": "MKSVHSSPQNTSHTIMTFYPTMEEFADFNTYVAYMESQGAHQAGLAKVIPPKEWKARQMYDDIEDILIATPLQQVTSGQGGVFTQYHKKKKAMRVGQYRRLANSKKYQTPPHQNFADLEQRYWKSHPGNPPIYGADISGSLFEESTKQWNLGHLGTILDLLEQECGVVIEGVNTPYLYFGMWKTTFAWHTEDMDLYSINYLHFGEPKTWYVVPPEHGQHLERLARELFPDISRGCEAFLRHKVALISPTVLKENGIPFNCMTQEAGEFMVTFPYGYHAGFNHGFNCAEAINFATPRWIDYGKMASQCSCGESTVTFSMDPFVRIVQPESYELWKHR", "test": "formaldehyde dehydrogenase (FDH)-coupled demethylation assay, KDM4E", "type": "biochemical", "details": "FDH-coupled fluorescence assay, KDM4E (400 nM), peptide 1–50 μM, HEPES pH 7.5", "procedure": "Kinetic parameters were determined by recording the initial reaction rates of NADH production at varying histone peptide concentrations (Fig. S24 and S25). The overall catalytic efficiencies (as measured by kcat/KM) gave the following rank orders for KDM4D: H1.5K26me3 (0.192 μM^−1 min^−1) > H1.3K24me3 (0.066 μM^−1 min^−1) ≈ H1.2K26me3 (0.063 μM^−1 min^−1) > H1.4K25me3 (0.044 μM^−1 min^−1). For KDM4E, the kinetic rank order was as follows: H3K9me3 (0.585 μM^−1 min^−1) > H1.2K26me3 (0.360 μM^−1 min^−1) > H1.5K26me3 (0.324 μM^−1 min^−1) ≈ H1.3K24me3 (0.310 μM^−1 min^−1) > H1.2K25me3 (0.247 μM^−1 min^−1) ≈ H1.4K25me3 (0.226 μM^−1 min^−1). These rank orders differ somewhat from the initial screening results. However, given the complexities of 2OG oxygenase catalysis and the relatively low catalytic efficiencies observed, such apparent discrepancies are not unexpected.[28] […]\nKinetic parameters for demethylation of N^ε-trimethylated H1 peptides by KDM4D and KDM4E (400 nM) measured using a formaldehyde dehydrogenase-coupled demethylation assay. […]\nSubstrate Km values for KDM4 enzymes were determined using a reported formaldehyde dehydrogenase/NAD coupled enzyme assay that quantifies formaldehyde production.[30] […] Coupled enzyme-assays were carried out in black polystyrene 384-well non-binding surface microplates (Corning) and kinetic measurements were obtained using a PHERAstar FS plate reader (BMG Labtech) equipped with a 350 nm excitation and 460 nm emission optic module.[30] […] Assays were initiated by plate reader injection of 25 μL of a mixture of KDM4 (0.8 μM) and formaldehyde dehydrogenase (FDH) (2.0 μM) in assay buffer (50 mM HEPES pH 7.5, 0.01% (v/v) Tween-20). Production of NADH was measured at 60 second intervals over 25 cycles. Kinetic parameters were determined from the reaction rate during the initial linear phase of formaldehyde production, and specific activities were calculated from a formaldehyde standard curve and fitted to the Michaelis–Menten equation using GraphPad Prism Version 5.0 (GraphPad software, La Jolla, CA, USA). […]", "key": {"[1]": {"details": "FAS 20 μM, LAA 200 μM, 2OG 200 μM, NAD+ 500 μM, FDH 2.0 μM, mean ± SEM (n = 3)"}}, "data": [{"substance": "ARTKQTARKme3STGGKA [Peptide H3K9me3, histone H3 residues 1-15 peptide with tri-methylated K9; commercial positive control, reference compound]", "values": [{"measurement": "Km", "setting": "[1]", "value": "6.72 ± 1.51", "unit": "µM"}, {"measurement": "kcat (KDM4E)", "setting": "[1]", "value": "0.0655 ± 0.00317", "unit": "s⁻¹"}, {"measurement": "kcat/KM (KDM4E)", "setting": "catalytic efficiency", "value": 9750, "unit": "M⁻¹ s⁻¹"}]}]}
